Consider one molecule from patent publication US20070191462A1, “Combination of A 5-HT(1) Receptor Agonist and an Alpha-2-Delta Ligand for the Treatment of Migraine” (Pfizer Limited, priority 2004, published 2007).

Each structure is given as a SMILES string.

The test system of the experiment is 2nd sensory neuron in the trigeminal nucleus caudalis (TNC). Nature of the experiment: rat model of migraine: sensitization induced by inflammatory soup applied to the dura, monitored by electrophysiology in the TNC. Format: in vivo. Particulars: pregabalin 30 mg/kg given 3 hours after inflammatory soup; 4.5 hour time point; not consistent among animals, large variability.

Regarding `CC(C)C[C@H](CN)CC(=O)O` [pregabalin, (S)-(+)-4-amino-3-(2-methylpropyl)butanoic acid], the “reversal of sensitization of responses to sensory stimuli (brush and pin)” value is given as “moderately reversed the sensitization”.
